# Measured values from PubChem BioAssay AID504333 (National Center for Advancing Translational Sciences (NCATS), 2011).
# Amino acid sequences for entries named in this document (tags omitted). A change or cut given only in a name is not applied to a line headed by its entry.
# UniProt Q9UIF8: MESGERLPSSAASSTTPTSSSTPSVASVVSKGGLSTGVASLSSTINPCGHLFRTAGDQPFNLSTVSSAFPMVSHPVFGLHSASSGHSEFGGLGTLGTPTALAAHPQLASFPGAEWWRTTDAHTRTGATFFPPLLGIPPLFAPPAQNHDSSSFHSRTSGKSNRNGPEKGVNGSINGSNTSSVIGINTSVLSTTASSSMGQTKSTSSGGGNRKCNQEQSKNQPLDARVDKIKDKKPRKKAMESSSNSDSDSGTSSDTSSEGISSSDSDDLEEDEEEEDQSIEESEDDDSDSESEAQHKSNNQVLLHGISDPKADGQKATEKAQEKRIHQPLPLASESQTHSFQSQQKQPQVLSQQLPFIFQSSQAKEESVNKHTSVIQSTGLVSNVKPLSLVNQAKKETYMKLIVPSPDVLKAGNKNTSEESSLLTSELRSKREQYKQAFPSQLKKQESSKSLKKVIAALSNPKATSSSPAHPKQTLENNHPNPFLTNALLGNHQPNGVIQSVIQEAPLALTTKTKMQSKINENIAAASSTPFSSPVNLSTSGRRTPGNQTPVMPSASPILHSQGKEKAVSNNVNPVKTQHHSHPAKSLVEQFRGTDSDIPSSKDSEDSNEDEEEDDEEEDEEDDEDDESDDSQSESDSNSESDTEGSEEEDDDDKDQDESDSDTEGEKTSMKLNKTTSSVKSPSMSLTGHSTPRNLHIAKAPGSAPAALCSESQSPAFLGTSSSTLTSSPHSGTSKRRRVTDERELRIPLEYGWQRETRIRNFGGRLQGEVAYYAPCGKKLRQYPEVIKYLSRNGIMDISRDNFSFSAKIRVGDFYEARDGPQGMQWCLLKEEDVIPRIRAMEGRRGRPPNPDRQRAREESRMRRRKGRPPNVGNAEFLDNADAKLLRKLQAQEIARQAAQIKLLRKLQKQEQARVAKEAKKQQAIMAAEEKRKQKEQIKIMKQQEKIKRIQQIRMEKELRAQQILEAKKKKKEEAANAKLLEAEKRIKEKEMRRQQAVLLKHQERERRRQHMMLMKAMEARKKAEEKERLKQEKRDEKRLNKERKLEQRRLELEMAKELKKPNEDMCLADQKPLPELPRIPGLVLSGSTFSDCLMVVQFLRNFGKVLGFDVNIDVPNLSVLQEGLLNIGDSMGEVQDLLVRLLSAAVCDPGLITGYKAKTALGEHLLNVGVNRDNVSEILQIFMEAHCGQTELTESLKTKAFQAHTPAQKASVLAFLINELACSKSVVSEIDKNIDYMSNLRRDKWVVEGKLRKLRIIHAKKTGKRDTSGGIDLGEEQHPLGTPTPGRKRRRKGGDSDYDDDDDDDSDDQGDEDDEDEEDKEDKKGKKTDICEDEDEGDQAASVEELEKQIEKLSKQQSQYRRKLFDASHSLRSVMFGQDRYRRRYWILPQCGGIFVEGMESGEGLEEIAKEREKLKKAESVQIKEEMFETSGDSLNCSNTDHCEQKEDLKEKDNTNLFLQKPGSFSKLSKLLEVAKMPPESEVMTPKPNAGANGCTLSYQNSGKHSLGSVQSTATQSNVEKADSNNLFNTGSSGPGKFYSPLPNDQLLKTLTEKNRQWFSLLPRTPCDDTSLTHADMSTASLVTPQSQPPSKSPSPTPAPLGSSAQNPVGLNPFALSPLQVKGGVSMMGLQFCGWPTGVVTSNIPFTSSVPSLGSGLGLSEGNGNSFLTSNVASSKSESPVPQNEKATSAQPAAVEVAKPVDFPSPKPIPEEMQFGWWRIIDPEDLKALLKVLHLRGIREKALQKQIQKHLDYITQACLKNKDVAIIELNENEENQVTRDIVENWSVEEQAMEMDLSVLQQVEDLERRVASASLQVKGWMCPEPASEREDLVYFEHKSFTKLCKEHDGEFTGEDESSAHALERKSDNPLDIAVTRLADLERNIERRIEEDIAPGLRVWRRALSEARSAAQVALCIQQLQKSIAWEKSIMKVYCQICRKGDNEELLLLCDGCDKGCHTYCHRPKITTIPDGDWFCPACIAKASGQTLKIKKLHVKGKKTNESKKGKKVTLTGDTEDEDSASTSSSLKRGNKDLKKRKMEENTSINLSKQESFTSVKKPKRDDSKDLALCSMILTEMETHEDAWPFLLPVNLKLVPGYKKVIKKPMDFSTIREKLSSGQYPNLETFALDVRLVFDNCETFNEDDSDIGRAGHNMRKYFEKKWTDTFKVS
# Hit rate of the full screen: of about 360,000 compounds, about 16,000 (4.4%) were called active. Only results without a clear call are listed here; the source files them as inconclusive. The call rests on the fitted dose curve; in most records, active means well fitted inhibition curve with a large enough effect; inconclusive means small, poorly fitted or top-dose-only effect; inactive means no such curve, though single readings can be large or run the other way.
# Molecular target: Bromodomain adjacent to zinc finger domain protein 2B (Homo sapiens) (UniProt Q9UIF8)
# Assay: qHTS Assay for Inhibitors of BAZ2B; further: nearly all actives have a fitted effect of over 60% in size
# Conditions: AlphaScreen BAZ2B-H3K14Ac peptide displacement
# Potency means the concentration at half of the fitted maximal effect.
row,SMILES,Potency
1,CCOc1ccc(C2=NCC(CBr)S2)cc1 (stereo not given),inconclusive: 89.1 µM
2,O=P1(Nc2nc3ccc(Cl)cc3s2)COc2ccccc2O1 (stereo not given),inconclusive: 100 µM
3,O=[N+]([O-])c1ccc(O)c(/C=N/Nc2ccc([N+](=O)[O-])cc2[N+](=O)[O-])c1,inconclusive: 8.91 µM
4,C(Cc1nn[nH]n1)Cc1nn[nH]n1,inconclusive: 79.4 µM
5,Cc1ccc(N/C(=N/P(=O)(N2CCOCC2)N2CCOCC2)N2CCOCC2)cc1,inconclusive: 70.8 µM
